# Data: patent US10875860B2, “Azaindenoisoquinoline compounds and uses thereof” (Purdue Research Foundation, priority 2016, dated 2020)
# Target: T1, recombinant human TDP2 (Homo sapiens, UniProt O95551)
# T1 sequence (O95551 1-362): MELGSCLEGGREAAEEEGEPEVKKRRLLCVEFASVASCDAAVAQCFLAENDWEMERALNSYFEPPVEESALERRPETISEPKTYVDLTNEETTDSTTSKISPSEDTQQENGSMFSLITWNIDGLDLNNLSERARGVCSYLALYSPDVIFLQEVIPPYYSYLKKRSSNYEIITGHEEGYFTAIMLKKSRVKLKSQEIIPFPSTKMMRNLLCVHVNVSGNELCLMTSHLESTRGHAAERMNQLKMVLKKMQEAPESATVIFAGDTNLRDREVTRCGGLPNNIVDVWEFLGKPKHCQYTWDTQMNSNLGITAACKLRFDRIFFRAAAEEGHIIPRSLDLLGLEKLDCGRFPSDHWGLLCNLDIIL
# Assay: Recombinant Tdp2 assay
# Assay type: biochemical
compound,measurement,value
"COc1cnc2c(c1)C(=O)c1c-2n(CCCN2CCCC2)c(=O)c2cc(Cl)ccc12 [Compound 16i, 3-Chloro-9-methoxy-6-(3-(pyrrolidin-1-yl)propyl)-5H-pyrido[3′,2′:4,5]cyclopenta[1,2-c]isoquinoline-5,11(6H)-dione]",IC50,> 111 µM
